From patent US20190119300A1, “SUBSTITUTED AND FUSED 6-MEMBERED PROTEASE ACTIVATED RECEPTOR 4 (PAR-4) ANTAGONISTS” (Vanderbilt University, priority 2016, published 2019)
pIC50: −log10 of the molar value.

Assays:
PAR-4 [1] = target: T1, PAR-4 (Homo sapiens, UniProt Q96RI0); experiment: PAC-1 binding assay, washed platelets stimulated with PAR-4-AP (flow cytometry); type: cell-based; settings: PAR-4-AP stimulation, read-out: PAR-4 AP % Max PAC-1 binding (IC50 [M])
T1 construct: endogenous in cells; host or cells: washed platelets
T1 sequence (Q96RI0 18-385): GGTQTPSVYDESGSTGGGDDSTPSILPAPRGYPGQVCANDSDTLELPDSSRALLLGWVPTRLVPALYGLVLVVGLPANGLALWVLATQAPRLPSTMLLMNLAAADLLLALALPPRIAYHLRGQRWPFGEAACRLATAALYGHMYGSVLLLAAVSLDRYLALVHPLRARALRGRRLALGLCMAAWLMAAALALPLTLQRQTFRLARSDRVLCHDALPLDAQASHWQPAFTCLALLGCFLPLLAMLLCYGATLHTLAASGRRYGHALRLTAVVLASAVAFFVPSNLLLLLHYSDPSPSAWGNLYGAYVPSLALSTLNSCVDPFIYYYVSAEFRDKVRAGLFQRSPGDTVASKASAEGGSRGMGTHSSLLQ
Description: (§1) PAC-1 Binding assay: 60 μL of washed platelets (Tyrodes buffer containing 0.1% BSA) at a concentration of 0.15×10^8 platelets/mL were added to 5 mL round bottom polystyrene tubes (BD, Franklin Lakes, N.J.). FITC conjugated PAC-1 (BD Biosciences, San Jose, Calif.) antibody was diluted (to the manufacturers recommended concentration) in Tyrode's buffer containing 0.1% BSA. 40 μL of diluted antibody was added to the platelets and allowed to incubate for 5 minutes. Platelets were pre-treated with indicated concentrations of antagonist or DMSO control for 20 minutes (the final DMSO concentration was 0.5%) followed by addition of PAR-1-AP (GL Biochem, Shanghai, China), PAR-4-AP, or gamma-thrombin for 10 minutes. Platelet activity was quenched by the addition ice cold 1.5% paraformaldehyde followed by dilution in 1× phosphate buffered saline. Platelets were stored up to 18 hours at 4° C. before flow cytometric analysis. Analysis was carried out on a BD FACS Canto II or BD LSRII (Franklin Lakes, N.J.). Fluorescent intensity was determined for at least 20,000 events within the platelet gate (forward scatter versus side scatter). Data was collected and analyzed via FACS DiVa or FlowJo software. Flow cytometric data analysis was conducted by the following method. The DMSO-vehicle treated control was subtracted from each data point. 100% response for PAR-4-AP was determined for each individual as the DMSO treated control stimulated with PAR-4-AP, PAR-1-AP, or gamma-thrombin. Data was plotted in GraphPad PRISM v.5.0. For compounds with a notable reduction in PAC-1 binding response, dose response curves and IC50 values were generated using the inhibitory sigmoidal dose response ‘variable slope’ parameter. Results were plotted as mean±SEM.

PAR-4 [2] = target: T1, PAR-4; experiment: PAC-1 binding assay, washed platelets stimulated with 100 nM gamma-thrombin (flow cytometry); type: cell-based; settings: for pIC50: 100 nM γ-thrombin stimulation
From the text: Gamma-thrombin is a proteolytic product of alpha-thrombin cleavage by a serine protease. Cleavage results in the disruption of exosite I which interacts directly with the hirudin-like domain of its primary substrates fibrinogen and protease-activated receptor 1 (PAR1). As a result, gamma-thrombin selectively cleaves PAR4 in the nanomolar range, leaving PAR1 intact. See Soslau, G., Class, R., Morgan, D. A., Foster, C., Lord, S. T., Marchese, P., and Ruggeri, Z. M. (2001) Unique pathway of thrombin-induced platelet aggregation mediated by glycoprotein Ib, The Journal of biological chemistry 276, 21173-21183. Gamma-thrombin (Enzyme Research Laboratories, South Bend, Indiana) is produced by trypsin-sepharose cleavage of alpha-thrombin. To neutralize alpha-thrombin contamination, stock solutions of gamma-thrombin are preincubated with 1 unit/mL hirudin prior 100 fold dilution into the sample for platelet stimulation. This concentration of hirudin is capable of abolishing alpha-thrombin activity with no effect on the activity of gamma-thrombin. See Soslau, G., Goldenberg, S. J., Class, R., and Jameson, B. (2004) Differential activation and inhibition of human platelet thrombin receptors by structurally distinct alpha-, beta- and gamma-thrombin, Platelets 15, 155-166. Single point screens and concentration response curves are conducted with 316 nanomolar or 100 nanomolar gamma-thrombin using PAC1 and CD62p binding.
as §1

Row | SMILES | IC50 (PAR-4 [1]) [M] | pIC50 (PAR-4 [2]) | IC50 (PAR-4 [2]; read-out: 100 nM γ-thrombin PAC-1 activity (IC50 [M]), 100 nM γ-thrombin stimulation) [M]
1 | COc1nn2cc(-c3c(F)cccc3F)nc2s1 [Example B4] | 1.3e-06 |  | 
2 | COc1nn2cc(-c3ccc(OC(F)(F)F)cc3)nc2s1 [Example B27] | 1.24e-08 | 6.58 | 
3 | COc1nn2cc(-c3ccc(F)c(C(F)(F)F)c3)nc2s1 [Example B29] | 6.88e-08 | < 6.00 | 
4 | COc1nn2cc(-c3ccc(Cl)cc3)nc2s1 [Example B19] | 4e-08 | 6.23 | 
5 | COc1nn2cc(-c3cccc(C(F)(F)F)c3)nc2s1 [Example B3] | 4.6e-08 | < 6.00 | 

More lines, in order of falling IC50 (PAR-4 [1]), values ahead:

Row | IC50 (PAR-4 [1]) [M] | pIC50 (PAR-4 [2]) | IC50 (PAR-4 [2]; read-out: 100 nM γ-thrombin PAC-1 activity (IC50 [M]), 100 nM γ-thrombin stimulation) [M] | SMILES
6 | 3e-08 | 6.02 |  | COc1nn2cc(-c3ccc(Cl)c(Cl)c3)nc2s1 [Example B20]
7 | 1.6e-08 |  | 3.48e-07 | COc1nn2cc(-c3ccc(C(F)(F)F)cc3)nc2s1 [Example B1]
